Measurements as given in PubChem BioAssay AID652126 (The Scripps Research Institute Molecular Screening Center, 2013).
Only a part is listed here, and it is no random draw. Calls of active or inactive are those of the source.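 How the source made its calls: active means activation above the mean over all tested compounds plus 3 SD (cut at about 0.9% in these data); inactive means the rest.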

The molecules below were run on Nuclear hormone receptor DAF-12 (Strongyloides stercoralis) (assay: S. stercoralis DAF-12 nuclear receptor activators, primary screen, cell-based, luminescence, HEK293, GRIP1 co-expression, lit1-tk-luc (AID 652126;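 further: 0% = DMSO-only wells and 100% = 3 µM delta7-dafachronic acid wells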)). Conditions: HEK293 ssDAF-12/GRIP1 lit1-tk-luc reporter, at 6.8 µM, active compounds read high, % of 3 µM dafachronic acid response.

Row | SMILES | activation
1 | CCC(=O)N(c1ccccc1)C1(COC)CCN(CCc2cccs2)CC1 | inactive: -1.12%
2 | CCC(=O)N(c1ccccc1)C1(COC)CCN(CCn2nnn(CC)c2=O)CC1 | inactive: -0.92%
